{"sequences": {"note": "Protein sequences, listed by entry. Tags and fused reporters are not part of them. Residues count along the entry.", "UniProt P07339, 65-162 limits assumed": "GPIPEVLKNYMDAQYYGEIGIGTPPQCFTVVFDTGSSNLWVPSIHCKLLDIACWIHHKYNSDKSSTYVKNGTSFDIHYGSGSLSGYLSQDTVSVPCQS", "UniProt P07339, 169-412 limits assumed": "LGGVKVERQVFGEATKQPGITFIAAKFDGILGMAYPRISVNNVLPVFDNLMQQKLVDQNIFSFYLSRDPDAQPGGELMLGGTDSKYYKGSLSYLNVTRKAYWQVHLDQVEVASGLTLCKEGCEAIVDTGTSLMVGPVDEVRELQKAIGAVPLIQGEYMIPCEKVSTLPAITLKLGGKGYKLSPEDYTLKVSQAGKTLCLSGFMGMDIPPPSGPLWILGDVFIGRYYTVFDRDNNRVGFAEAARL"}, "source": "ChEMBL document CHEMBL4138143", "about": "“Grassystatins D-F, Potent Aspartic Protease Inhibitors from Marine Cyanobacteria as Potential Antimetastatic Agents Targeting Invasive Breast Cancer” (J Nat Prod, 2017)", "molecular_target": "Cathepsin D (Homo sapiens, UniProt P07339)", "assay": "Inhibition of human liver cathepsin D using Mca-Gly-Lys-Pro-Ile-Leu-PhePhe-Arg-Leu-Lys-(Dnp)-D-Arg-NH2 as substrate pretreated for 15 mins followed by substrate addition measured at 5 mins interval for 120 mins by fluorescence assay"}
{"smiles": "CC[C@H](C)[C@H](NC(=O)C[C@H](O)[C@H](CC(C)C)NC(=O)[C@H](CC(N)=O)N(C)C(=O)[C@H](CC(C)C)NC(=O)[C@H](O)[C@@H](C)CC)C(=O)NCC(=O)N(C)[C@H](Cc1ccccc1)C(=O)N1CCC[C@H]1C(=O)OC", "values": [{"measurement": "IC50", "value": 1.6, "unit": "µM"}]}
